How the values were obtained:
BT474 cells = experiment: Immunoreactivity assay of ^89Zr-labeled trastuzumab complexes; format: cell-based; settings: 1 h incubation
Procedure: To calculate the immunoreactivity, ^89Zr-complexes were incubated with BT474 cells for 1 h (Table 10).
The treated cells were then pelleted via centrifugation (600 G for 2 min), aspirated, and washed twice with cold PBS before removing the supernatant and counting the activity associated with the cell pellet. The activity data were background-corrected and compared with the total number of counts in appropriate control samples. Immunoreactive fractions were determined by linear regression analysis of a plot of (total/bound) activity against (1/[normalized cell concentration]). No weighting was applied to the data, and data were obtained as n=3.

BT474 xenografts = experiment: PET imaging of ^89Zr-trastuzumab radioimmunoconjugates in BT474 xenograft mice; format: in vivo, female, athymic nude mice; settings: imaged over 9 d
Procedure: PET imaging was carried out in order to directly compare the in vivo behavior and pharmacokinetics of DFO- and HOPO-based ^89Zr-trastuzumab radioimmunoconjugates. […] One aspect of this method is that sufficient time must elapse after administration of the bifunctional ligand-antibody complex to allow for unbound bifunctional ligand-antibody complex to clear the subject (e.g., by renal or fecal clearance). At that point, the bound bifunctional ligand-antibody complex can be appropriately imaged with high contrast due to the lack of noise that can be generated by unbound bifunctional ligand-antibody complexes. […] The generated image of the tumor can be used for gaining quantitative information about the tumor and/or one or more tumor cells present, such as its/their dimensions (e.g., size, volume), shape, or rate of growth or shrinkage. Additional information about one or more moiety expressions (e.g., protein expressions) of the tumor can also be gained based on whether association of one or more antibodies utilized in the composition occurs with one or more tumor cells in the subject. […]
PET imaging experiments were conducted on a microPET Focus 120. […] PET data for each mouse were recorded via static scans at various time points (n=4) between 6 h and 9 d. […] Images were analyzed using ASIPro VM software (Concorde Microsystems).

Substance	Immunoreactive Fraction (BT474 cells)	Immunoreactive Fraction (BT474 cells; listed as 89Zr-DFO-Trastuzumab)	bone uptake in PET images (BT474 xenografts)	Immunoreactive Fraction (BT474 cells; listed as 89Zr-HOPO-Trastuzumab)
^89Zr-DFO-trastuzumab	88.6±2.1%	88.6 ± 2.1%	evidence of bone uptake	
^89Zr-HOPO-trastuzumab	92.4±6.8%		very low bone uptake	92.4 ± 6.8%
